Measurements published in patent US11040053B2, “Compositions and methods for activating “stimulator of interferon gene”13 dependent signalling” (CHINOOK THERAPEUTICS, INC., priority 2015, dated 2021).

Amino acid sequences for entries named in this document (tags omitted). Residues count along the entry.
UniProt Q86WV6, 140-379: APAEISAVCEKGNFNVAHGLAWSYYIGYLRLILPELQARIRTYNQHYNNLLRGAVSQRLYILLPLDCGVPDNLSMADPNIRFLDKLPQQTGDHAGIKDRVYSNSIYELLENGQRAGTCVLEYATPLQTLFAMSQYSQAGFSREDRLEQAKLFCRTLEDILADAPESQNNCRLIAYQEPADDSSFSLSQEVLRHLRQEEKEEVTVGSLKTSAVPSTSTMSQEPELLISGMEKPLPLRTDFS
UniProt Q86WV6, 140-379 G230A/H232R/R293Q limits assumed: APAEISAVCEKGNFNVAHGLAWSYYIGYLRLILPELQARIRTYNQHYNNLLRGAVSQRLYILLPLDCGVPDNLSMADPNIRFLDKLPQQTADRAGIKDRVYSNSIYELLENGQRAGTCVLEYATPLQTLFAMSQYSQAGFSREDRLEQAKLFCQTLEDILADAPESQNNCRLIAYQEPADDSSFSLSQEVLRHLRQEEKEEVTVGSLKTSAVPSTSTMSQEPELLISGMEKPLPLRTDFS
UniProt Q86WV6, 140-379 H232R: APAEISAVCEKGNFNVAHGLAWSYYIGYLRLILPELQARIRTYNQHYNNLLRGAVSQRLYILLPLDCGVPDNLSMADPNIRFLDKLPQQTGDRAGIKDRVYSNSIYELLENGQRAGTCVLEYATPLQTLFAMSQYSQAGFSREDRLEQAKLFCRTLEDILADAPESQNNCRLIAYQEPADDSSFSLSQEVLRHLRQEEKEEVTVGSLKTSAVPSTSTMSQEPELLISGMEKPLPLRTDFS

What was measured:
[1] = target: T1, hSTING(REF) (Homo sapiens, UniProt Q86WV6); test: Differential scanning fluorometry (DSF) binding to purified hSTING REF allele; design: DNA encoding amino acids 140-379 (amino acid numbering corresponding to Swiss Prot Q86WV6); 6xHIS (N, cleaved yes); SUMO (N, cleaved yes); made in house; host or cells: Rosetta2 (DE3) E. coli; details: 1 mg/ml STING AA140-379, ligand 1 mM
Method: (§1) Cells were grown in lysogeny broth at 37° C. until a […] absorbance of 0.6 was reached. […] Cell pellets were re-suspended on ice in a buffer containing 50 mM Tris hydrochloride (Tris-HCl) pH 7.5, 500 mM sodium chloride (NaCl), 20 mM imidazole, 10% glycerol, 1 mM tris(2-carboxyethyl)phosphine hydrochloride (TCEP) and protease inhibitor tablet (Pierce) (Buffer A). Cells were lysed using an S-450D sonifier (Emmerson industrial) on ice. […] Protein was aliquoted, flash frozen in liquid nitrogen and stored at −80° C. until use.
(§2) The protein is heated in the presence of a dye that binds to and fluoresces in hydrophobic environments. The protein is thermally denatured by heating resulting in increased dye binding to the unfolded protein and fluorescence. The temperature midpoint (Tm) of a proteins denaturation is established by calculating the half maximal value of the denaturation curve. […]
(§3) Samples were placed in hard shell PCR plate (Bio-Rad). The fluorescence as a function of temperature was recorded in a CFX 96 real time PCR machine (Bio-Rad) reading on the HEX channel, excitation 450-490, emission 560-580 nm. […] The midpoint temperature (Tm) was calculated by fitting the curves of the fluorescence as a function of temperature to a Boltzmann sigmoidal function (Graph Pad Prism).

[2] = target: T2, HAQ allele hSTING (Homo sapiens, UniProt Q86WV6, G230A/H232R/R293Q); test: Differential scanning fluorometry (DSF) binding to purified hSTING HAQ allele; details: 1 mg/ml STING AA140-379, ligand 1 mM
T2 construct: DNA encoding amino acids 140-379 (amino acid numbering corresponding to Swiss Prot Q86WV6); 6xHIS (N, cleaved yes); SUMO (N, cleaved yes); made in house; host or cells: Rosetta2 (DE3) E. coli
Method: as §1, §2, §3

[3] = target: hSTING(WT) (Homo sapiens, UniProt Q86WV6, H232R); test: Differential scanning fluorometry (DSF) binding to purified hSTING WT; design: DNA encoding amino acids 140-379 (amino acid numbering corresponding to Swiss Prot Q86WV6); 6xHIS (N, cleaved yes); SUMO (N, cleaved yes); made in house; host or cells: Rosetta2 (DE3) E. coli; details: 1 mg/ml STING AA140-379, ligand 1 mM
Method: as §1, §2, §3

[4] = target: T1, hSTING(REF); test: IFN-β luciferase reporter in HEK293T cells stably expressing hSTING(REF), digitonin permeabilization; details: FIGS. 6A-B, 0.1 μM to 100 μM and 6.25 μM CDN
[5] = target: T3, reference (REF) STING allele (Homo sapiens, UniProt Q86WV6); test: Cytokine transcript induction (qRT-PCR) in STING^REF/REF hPBMCs; type: cell-based; details: FIGS. 8A-B, 2 hours stimulation, 100 μM to 0.1 μM
T3 construct: endogenous in cells
Method: The induction of type I interferon was measured in human primary blood mononuclear cells (hPBMCs) to evaluate the potency of mono- or di-F-CDN compounds as described herein. hPBMCs from two unique donors were used: one donor was homozygous for the wild type (WT) STING allele (STING^WT/WT) and the other donor was homozygous for the so-called reference (REF) STING allele (STING^REF/REF). The STING genotype of these donors was determined by PCR amplification and sequencing: genomic DNA was isolated from 10^4 hPBMCs using Quick Extract DNA Extraction Solution (Epicentre) and was used to amplify regions of exon 3, 6, and 7 of the human STING gene.
Cells were incubated at 37° C., 5% CO2 with concentrations ranging from 100 μM to 0.1 μM of each CDN. After 2 hours (FIGS. 7 and 8) or 2 hours and 6 hours (FIGS. 9-13) stimulation, cells were harvested by centrifugation and washed once with phosphate-buffered saline. Cellular RNA was isolated using the Aurum Total RNA 96 Kit and cDNA was synthesized using the iScript cDNA Synthesis Kit. Target and reference gene expression was assessed by real-time qRT-PCR using PrimePCR probe assays and the CFX96 gene cycler (all reagents and equipment from BioRad). Normalized IFNβ expression was expressed relative to untreated cells. […]

hSTING Tm Shift REF [1]: 2.5 °C
hSTING Tm Shift HAQ [2]: 10.5 °C
hSTING Tm Shift WT [3]: 2 °C
IFNβ luciferase reporter induction by hSTING(REF), in words [4]: responded poorly
Structure (SMILES): Nc1nc2c(ncn2[C@@H]2O[C@@H]3COP(=O)(O)O[C@H]4[C@@H](O)[C@H](n5cnc6c(N)ncnc65)O[C@@H]4COP(=O)(O)O[C@H]3[C@H]2O)c(=O)[nH]1 [3'3'-(G)(A), reference compound]
relative normalized IFNβ expression, in words [5]: did not stimulate production of appreciable IFNβ transcript levels
